The values below come from patent US8765166B2, “Drug delivery devices for delivery of ocular therapeutic agents” (Aerie Pharmaceuticals, Inc., priority 2010, dated 2014).

A short description of the data set: Solubility of active agents. Particulars: PBS at pH=7.2-7.4. The source says:
The active agent may be any active agent suitable to treat the desired condition. […] Examples include, but are not limited to, acetazolamide, dorzolamide HCl, timolol maleate, and ethacrynic acid sodium salt.

As for latanoprost arginine salt, the solubility class entry is “moderate solubility”.
